Laboratory results reported in patent publication US7919459B2, “Use of C5a receptor antagonist in the treatment of fibrosis” (Promics Pty Limited, priority 2002, dated 2011).

Tested on: L-NAME-treated male Wistar rats
Test: L-NAME-induced hypertension/cardiac fibrosis in rats: intake, growth, tail-cuff blood pressure, organ weights
Protocol: Male Wistar rats (8 weeks old) were obtained from the Central Animal Breeding House of The University of Queensland.
This agent was administered at a dosage of 1 mg/kg/day orally for 4 days before rats were additionally treated with nitro-L-arginine methyl ester (L-NAME) for 4 weeks, i.e. a total duration of treatment of antagonist of 32 days. L-NAME administration produces hypertension and cardiac remodelling as a result of inhibition of the production of nitric oxide (NO).
L-NAME was administered at a concentration of 400 mg/l in the drinking water for 4 weeks to give a mean daily intake of 18.7±0.4 mg L-NAME (41.4±0.8 mg/kg mean body weight). Body weight and food and water intakes were measured daily.
Systolic blood pressure was measured in selected unanaesthetised rats, using a tail-cuff method.

For AcF-[OPdChaWR] [PMX53], the “water intake or growth rate” value (PMX53 1 mg/kg/day orally 32 days, L-NAME 400 mg/l in drinking water 4 weeks) was “Neither L-NAME nor C5a receptor antagonist treatment altered” and the “wet weights of the remaining major organs” value (control and L-NAME rats) was “did not significantly alter”.
